Experimental data: US20260138990A1, “TRICYCLIC FUSED IMIDAZOLE COMPOUNDS AS CD38 MODULATORS AND USES THEREOF” (AEOVIAN PHARMACEUTICALS, INC., priority 2023, published 2026)

Amino acid sequences for entries named in this document (tags omitted).
UniProt P56528, whole entry: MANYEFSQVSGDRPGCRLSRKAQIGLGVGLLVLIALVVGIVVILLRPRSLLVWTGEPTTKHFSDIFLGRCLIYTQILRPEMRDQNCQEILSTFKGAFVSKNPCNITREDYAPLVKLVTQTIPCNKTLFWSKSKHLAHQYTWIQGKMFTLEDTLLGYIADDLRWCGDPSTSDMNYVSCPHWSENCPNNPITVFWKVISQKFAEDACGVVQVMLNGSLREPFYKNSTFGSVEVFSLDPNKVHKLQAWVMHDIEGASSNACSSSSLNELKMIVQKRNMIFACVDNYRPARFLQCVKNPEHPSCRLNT
UniProt P28907, whole entry: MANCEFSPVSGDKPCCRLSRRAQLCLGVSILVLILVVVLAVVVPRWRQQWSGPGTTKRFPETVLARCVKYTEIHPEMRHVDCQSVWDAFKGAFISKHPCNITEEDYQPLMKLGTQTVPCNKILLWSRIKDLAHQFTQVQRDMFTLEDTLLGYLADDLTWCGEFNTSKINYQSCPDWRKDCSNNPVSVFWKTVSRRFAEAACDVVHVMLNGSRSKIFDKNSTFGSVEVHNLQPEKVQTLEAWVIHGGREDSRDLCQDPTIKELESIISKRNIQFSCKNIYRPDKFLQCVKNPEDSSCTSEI

Legend:
mouse CD38 = mouse CD38 (Mus musculus, UniProt P56528); test: NAD+ cyclase activity assay with mouse recombinant CD38 protein (ε-NAD fluorescence); details: read-out: Mouse CD38 IC50; 0.6 nM mouse CD38, substrate ε-NAD, 30 min preincubation, fluorescence 300/410 nm
Procedure: Example 4: NAD^+ Cydase Activity Assay with Human or Mouse Recombinant CD38 Protein
The following assay was used to determine the ability of compounds of the invention to inhibit the hydrolysis of NAD^+ by the human or mouse enzyme, CD38.
Reaction buffer: 40 mM HEPES/NaOH pH 7.5, 250 mM sucrose, 0.01% Tween
Final concentrations: 0.6 nM mouse CD38 (4947-AC, Bio-Techne GmbH) 1.9 nM human CD38 (AVI2404, Bio-Techne GmbH)
Substrate: […] Nicotinamide 1,N6-ethenoadenine dinucleotide (&-NAD)
Read-out: Fluorescence intensity (extinction 300 nm/emission 410 nm)
Required reaction buffer, required CD38 concentration in reaction buffer and required e-NAD concentration in reaction buffer were prepared. […] After shaking for 15 s at 1450 rpm, plate was sealed, and assay signal were measured continuously with PHERAstar® fluorescence intensity module (extinction 300 nm/emission 410 nm).
Dose-response curves were constructed using twelve-pointfactor three dilutions in triplicates per plate. […] For data analysis, fluorescent signal of traces corresponding to each compound concentration and High and Low control were monitored over time. […] Thereafter, slopes of all compound concentrations were determined via fitting to same linear equation (GraphPad Prism) over the same time interval as determined for High control. […]

human CD38 = human CD38 (Homo sapiens, UniProt P28907); test: NAD+ cyclase activity assay with human recombinant CD38 protein (ε-NAD fluorescence); details: read-out: Human CD38 IC50; 1.9 nM human CD38, substrate ε-NAD, 30 min preincubation, fluorescence 300/410 nm

IC50 (mouse CD38): 0.001 to 0.01 µM
IC50 (human CD38): < 0.03 µM
SMILES: CNc1nc2cc(NC(=O)c3ccc4c(c3)-c3cncn3CCO4)ccc2s1
